Results reported in paper PMC2386079 (Journal of Antimicrobial Chemotherapy, 2008).

Key:
J774 macrophages = assay: electron microscopy with morphometric analysis of lysosomal changes, macrophages; type: cell-based, mouse; conditions: 24 h, 5, 25 or 90 mg/L
rat embryo fibroblasts = assay: electron microscopy with morphometric analysis of lysosomal changes, fibroblasts; type: cell-based; conditions: 72 h, 5, 25 or 90 mg/L

- percentage of cell volume occupied by overloaded lysosomes (morphometry) (J774 macrophages): concentration-dependent increase
- percentage of cell volume occupied by overloaded lysosomes (morphometry) (rat embryo fibroblasts): concentration-dependent increase
Substance: Telavancin
